Values joined by “and” are separate entries in the source; they are usually repeats but may differ in a detail not shown here. Identical values can stand only once. The list shows a part of the results, in another mix than the full data. Active and inactive are the calls of the source.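 How the source made its calls: active means inhibition above about 50% (limit read from the data); inactive means the rest.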

This assay relates to calpain II (m-calpain), Sus scrofa. The experiment in a line: m-calpain protease activity blockers – biochemical, fluorogenic peptide substrate, 1536-well, primary screen (AID 1236). To be noted: purified calpain II, 30 min, at 16 µM, stronger effect = higher value.
Consider `CCC(=O)N1C2C3N(C(=O)CC)C1C1N(C(=O)CC)C(C(N1C(=O)CC)N3C(=O)CC)N2C(=O)CC`, for which the inhibition was inactive: 2.4%.

Take `Cc1ccc(OP(=O)(Nc2ccccn2)Oc2ccc(C)cc2)cc1`: the inhibition is inactive: 31.4%.

Consider `CC(=O)NC(SC(=S)N(CC(C)C)CC(C)C)C(Cl)(Cl)Cl` (configuration not stated), for which the inhibition was inactive: 36.9%.

With `COC(=O)c1cc2c(s1)N=C(c1ccccc1)N(C)P2(=O)N1CCOCC1` (configuration not stated), the inhibition is inactive: 2.2%.

On to `O=c1c2cc([N+](=O)[O-])ccc2[nH]c2c([N+](=O)[O-])cc([N+](=O)[O-])cc12`, for which the inhibition was inactive: -6.81%.

On to `CN(C)C(=O)Oc1noc2ccccc12`, for which the inhibition was inactive: -0.77%.

Turning to `Cc1ccccc1OP(=O)(Nc1ccccn1)Oc1ccccc1C`, the inhibition was inactive: -0.47%.

With `CCOC(=O)NC(Sc1ccccc1)C(Cl)(Cl)Cl` (configuration not stated), the inhibition is inactive: 29.2%.

On to `Cc1ccc(NP(=O)(Oc2cccc(C)c2)Oc2cccc(C)c2)nc1`, for which the inhibition was inactive: 19.5%.

With `c1ccc(-c2nn[nH]n2)c(-c2nn[nH]n2)c1`, the inhibition is inactive: 5.91%.

On to `O=C(NC1CCS(=O)(=O)C1)NP(=S)(Oc1ccccc1)Oc1ccccc1` (configuration not stated), for which the inhibition was inactive: 15.5%.

For `CCNC(=S)/N=C(\N)N[N+](=O)[O-]`, the inhibition was inactive: -23.5%.

Regarding `C[C@H]1OP(=O)(Oc2ccccc2)C[C@@H]2O[C@@H]21` (some centres not stated), the inhibition is inactive: -6.93%.

For `C[C@@H]1C=CCP(=O)(Oc2ccccc2)O1` (some centres not stated), the inhibition was inactive: -15.4%.

With `CC(=O)Nc1ccc(Oc2c([N+](=O)[O-])cc([N+](=O)[O-])cc2[N+](=O)[O-])cc1`, the inhibition is inactive: 33%.

As for `CC(=O)Nc1ccc([As](=O)(O)O)c(O)c1`, the inhibition is inactive: -6.19%.

As to `CCOc1ccc(C2=NCC(CBr)S2)cc1` (configuration not stated), the inhibition was inactive: 17.1%.

On to `O=P1(Nc2nc3ccc(Cl)cc3s2)COc2ccccc2O1` (configuration not stated), for which the inhibition is inactive: 9.31%.

For the molecule `CC(C)(C)C(=O)NC(Sc1ccccc1)C(Cl)(Cl)Cl` (configuration not stated), the inhibition was inactive: 5.22%.

As to `O=P(Nc1nccs1)(c1ccccc1)c1ccccc1`, the inhibition is inactive: -28.6%.

As to `CC(C)C(=O)NC(Sc1ccccc1)C(Cl)(Cl)Cl` (configuration not stated), the inhibition is inactive: -16.1%.

Turning to `c1nnnn1CCn1cnnn1`, the inhibition was inactive: -33.9%.

In the case of `O=[As](O)(c1ccccc1)c1ccc(O)cc1`, the inhibition was inactive: 4.01%.

On to `O=[N+]([O-])c1ncn(CCn2cnc([N+](=O)[O-])n2)n1`, for which the inhibition was inactive: -3.27%.

As for `CC(=O)NC(SC(=S)N(C)C)C(Cl)(Cl)Cl` (configuration not stated), the inhibition is inactive: -6.42%.

As for `O=C(OC1CN2CCC1CC2)c1cccc(Cl)c1` (configuration not stated), the inhibition was inactive: -16.5%.

As for `C(Cc1nn[nH]n1)Cc1nn[nH]n1`, the inhibition was inactive: -11.3%.

On to `Nc1ccc([As](=O)(O)c2ccc([N+](=O)[O-])cc2)cc1`, for which the inhibition was inactive: 2.25%.

Regarding `O=P(Nc1ccccn1)(c1ccc(Br)cc1)c1ccc(Br)cc1`, the inhibition was inactive: 13.3%.

For `C[C@H]1OP(=O)(Oc2ccccc2)[C@H](O)[C@H](O)[C@H]1N=[N+]=[N-]` (some centres not stated), the inhibition is inactive: -4.25%.

As for `O=P(Nc1nc2ccccc2s1)(c1ccccc1)c1ccccc1`, the inhibition is inactive: 4.7%.

`O=[N+]([O-])c1ncn(CCn2ncnc2[N+](=O)[O-])n1`: the inhibition is inactive: 30.3%.

As for `CC(C)(C)C(=O)NC(Sc1ccncn1)C(Cl)(Cl)Cl` (configuration not stated), the inhibition was inactive: -15%.

For the molecule `O=C(O)CNc1ccc([As](=O)(O)O)cc1`, the inhibition is inactive: -14%.

As for `O=[N+]([O-])c1cccc(NC2=NCC(CBr)S2)c1` (configuration not stated), the inhibition was inactive: 13.8%.

For `O=C(Nc1cc([As](=O)(O)O)ccc1O)c1ccccc1`, the inhibition was inactive: -19.6%.

As to `CCN(/C(=N/P(=O)(N1CCOCC1)N1CCOCC1)N1CCOCC1)c1ccc(OC)cc1`, the inhibition is inactive: 22.7%.

With `C[N+]1=C2C=CC=CC=C2SC12C([N+](=O)[O-])=CC([N+](=O)[O-])=C[C-]2[N+](=O)[O-]` (configuration not stated), the inhibition was inactive: -8.5%.

Turning to `Nc1ccc([As](=O)(O)c2ccc(N)cc2)cc1`, the inhibition is inactive: -2.8%.

For the molecule `CC1CCN(C(=O)Oc2c(Cl)cc(Cl)c3cccnc23)CC1`, the inhibition was inactive: -0.66%.

Take `CN(C)C(=O)OCCc1n(C)cc[n+]1C`: the inhibition was inactive: -4.85%.

With `CC(C)=N/N=C(\N)N[N+](=O)[O-]`, the inhibition was inactive: 0.41%.

For the molecule `COc1ccc(C2=NCC(CBr)S2)cc1` (configuration not stated), the inhibition was inactive: -16.1%.

In the case of `O=[N+]([O-])c1cc([N+](=O)[O-])c(CCNc2ccccc2)c([N+](=O)[O-])c1`, the inhibition was inactive: -13%.

In the case of `CCc1nc2c(n1)c1c(non1O)c1c2no[n+]1[O-]`, the inhibition is inactive: 3.1%.

For `Cc1ccc(NP(=O)(Oc2ccccc2)Oc2ccccc2)nc1`, the inhibition is inactive: -22.8%.

Regarding `CC(=O)N1C2C3N(C(C)=O)C1C1N(C(C)=O)C(C(N1C(C)=O)N3C(C)=O)N2C(C)=O`, the inhibition is inactive: 14.6%.

As for `O=[N+]([O-])c1cccc2n[nH]nc12`, the inhibition is inactive: -47.4%.

For the molecule `O=C(NC(Sc1ccncn1)C(Cl)(Cl)Cl)c1ccccc1` (configuration not stated), the inhibition was inactive: -6.4%.

Regarding `Cc1c2non([O-])c-2c(C)[n+](=O)[n+]1[O-]`, the inhibition was inactive: 9.13%.

For `Oc1ccccc1CNc1ccccn1`, the inhibition was inactive: -12.1%.

As to `Nc1cc(N)c2nonc2c1[N+](=O)[O-]`, the inhibition is inactive: -5.45%.

Take `CC(C)CC(=O)NC(Sc1ccc(Cl)cc1)C(Cl)(Cl)Cl` (configuration not stated): the inhibition is inactive: -37.7%.

For `Cc1ccc(N/C(=N/P(=O)(N2CCOCC2)N2CCOCC2)N2CCOCC2)cc1`, the inhibition is inactive: -24.8%.

Consider `NC(=O)c1cc([N+](=O)[O-])cc([N+](=O)[O-])c1N`, for which the inhibition is inactive: -13.2%.

`CN1CCCC(OC(=O)C(c2ccccc2)c2ccccc2)C1` (configuration not stated): the inhibition was inactive: 5.27%.

Turning to `Clc1ccc(Cl)c(NC2=NCC(CBr)S2)c1` (configuration not stated), the inhibition was inactive: -7.89%.

Take `Cc1ccc(OP(=O)(Nc2nccs2)Oc2ccc(C)cc2)cc1`: the inhibition was inactive: -3.81%.

`COc1ccccc1OP(=O)(Nc1ccc(C)cn1)Oc1ccccc1OC`: the inhibition was inactive: -14.3%.

As to `Nc1cccc2ccc([As](=O)(O)O)cc12`, the inhibition is inactive: -314%.

As to `CCN(N=Nc1nonc1N)c1nonc1N`, the inhibition is inactive: -3.28%.

`O=P(Nc1nc2ccc(Cl)cc2s1)(c1ccccc1)c1ccccc1`: the inhibition is inactive: -18.2%.

Regarding `CC(=O)Nc1ccc([As](=O)(O)O)cc1`, the inhibition was inactive: -15.7%.

With `O=C(O)c1ccccc1[As](=O)(O)O`, the inhibition was inactive: 11.4%.

For the molecule `Cc1ccc(NP(=O)(Oc2ccccc2F)Oc2ccccc2F)nc1`, the inhibition was inactive: -10%.

Consider `Cc1cc(SC(NC(=O)c2ccc(F)cc2)C(Cl)(Cl)Cl)ncn1` (configuration not stated), for which the inhibition was inactive: -5.47%.

In the case of `CCOP(=O)(Nc1ccccc1)OCC`, the inhibition was inactive: -16.6% and inactive: -5.14%.

As to `ClCCSc1nnc(-c2cccnc2)o1`, the inhibition was inactive: 13.5%.

For the molecule `CC(C)c1ccc(OP(=O)(Nc2ccccn2)Oc2ccccc2F)cc1` (configuration not stated), the inhibition is inactive: 1.19%.

In the case of `O=[N+]([O-])c1cc([N+](=O)[O-])c(-c2ccn[nH]2)s1`, the inhibition was inactive: 29.6%.

Take `CC(C)NC(=O)NP(=O)(Oc1ccccc1)Oc1ccccc1`: the inhibition is inactive: -14.7%.

For `CCN(CC)C(=S)SC(NC=O)C(Cl)(Cl)Cl` (configuration not stated), the inhibition was inactive: 4.86%.

Consider `C[As](=O)(O)c1cccc(C(=O)O)c1`, for which the inhibition was inactive: 12.8%.

As to `O=[As](O)(c1ccc(O)cc1)c1ccccc1O`, the inhibition is inactive: 11.6%.

In the case of `Cc1ccc(OP(=O)(Nc2ccc([N+](=O)[O-])cn2)Oc2ccc(C)cc2)cc1`, the inhibition is inactive: -12.2%.

Turning to `Cc1ccc2nc3c(c(C)c2c1)CC(C(Cl)Cl)S3` (configuration not stated), the inhibition is inactive: -10.2%.

For the molecule `COc1ccc(N/C(=N/P(=O)(N2CCOCC2)N2CCOCC2)N2CCOCC2)cc1`, the inhibition is inactive: 25.3%.

Take `Cc1c2c(nc3ccccc13)SC(C(Cl)Cl)C2` (configuration not stated): the inhibition was inactive: 12.9%.

For the molecule `Cc1cc(=O)[nH]c(N[N+](=O)[O-])n1`, the inhibition was inactive: -13.2%.

For `O=C(OC1CN2CCC1CC2)C12CC3CC(CC(C3)C1)C2` (configuration not stated), the inhibition was inactive: -11.7%.

As for `COc1cc(I)ccc1[As](=O)(O)O`, the inhibition is inactive: -14%.

As for `COc1ccc2nc(NP(=O)(c3ccccc3)c3ccccc3)sc2c1`, the inhibition is inactive: 23.5%.

`CCOC(=O)c1ccc(NC(=O)C(C)(CCl)SC)cc1` (configuration not stated): the inhibition is inactive: -18.2%.

With `CCC(C)N(CC(C)C)C(=S)SC(NC(C)=O)C(Cl)(Cl)Cl` (configuration not stated), the inhibition is inactive: 3.65%.

For `COP1(=S)c2c(C)nn(CCC#N)c2N=C(c2ccc(F)cc2)N1C` (configuration not stated), the inhibition was inactive: 6.22%.

Take `O=C(COc1ccccc1)OC1CN2CCC1CC2` (configuration not stated): the inhibition is inactive: -9.13%.

Turning to `CCOC(=O)Nc1cccc([As](=O)(O)O)c1`, the inhibition was inactive: 21.6%.

For `Cc1cc(SC(NC=O)C(Cl)(Cl)Cl)ncn1` (configuration not stated), the inhibition was inactive: 4.03%.

For `O=P(Nc1ccccn1)(c1cccc2ccccc12)c1cccc2ccccc12`, the inhibition was inactive: -69.8%.

`O=[N+]([O-])c1ccc(Nc2ccc(Oc3ccc([N+](=O)[O-])cc3[N+](=O)[O-])cc2)c([N+](=O)[O-])c1`: the inhibition was inactive: -16.1%.

`CCOC(=O)Nc1ccc([As](=O)(O)O)c(O)c1`: the inhibition was inactive: 1.49%.

Consider `Cc1cc(SC(NC(=O)c2ccccc2)C(Cl)(Cl)Cl)nc(C(C)C)n1` (configuration not stated), for which the inhibition was inactive: -24.8%.

For the molecule `O=P1(Nc2ncccn2)COc2ccccc2OC1`, the inhibition is inactive: -27.6%.

For `Nc1cccc([As](=O)(O)c2ccccc2)c1`, the inhibition was inactive: 16.5%.

Consider `O=[As](O)(c1cccs1)c1cccs1`, for which the inhibition is inactive: -21.9%.

Turning to `Cc1ccc(OCC(=O)OC2CN3CCC2CC3)cc1` (configuration not stated), the inhibition was inactive: -62%.

On to `O=P1(Nc2ccc(Br)cn2)COc2ccccc2OC1`, for which the inhibition is inactive: 8.52%.

On to `CC1CCC(C(C)C)C(OP(=O)(Nc2ccccn2)c2ccccc2)C1` (configuration not stated), for which the inhibition was inactive: 31.9%.

Turning to `Cc1nn(-c2ccccc2)c2c1P(=O)(N1CCOCC1)N(C)C(c1ccccc1)=N2` (configuration not stated), the inhibition was inactive: -1.72%.

Take `CN(C)C1(CNC(=O)c2ccc(S(C)(=O)=O)cc2)CCCCC1`: the inhibition is inactive: 23.3%.

Regarding `O=C(/C=C/c1ccccc1)OC1CN2CCC1CC2` (configuration not stated), the inhibition was inactive: 17.6%.

In the case of `CN(C(=O)Cc1ccc(Cl)c(Cl)c1)[C@@H]1CCCC[C@H]1N1CCCC1`, the inhibition is inactive: 13.3%.

As a reminder, the inhibition is the drop in the measured response relative to a control, in per cent.

The record behind these values is PubChem BioAssay AID1236 (Emory University Molecular Libraries Screening Center, 2008).
